Data reported in patent publication US20210145833A1, “Methods and Compositions for Hair Growth by Activating Autophagy” (The Regents of the University of California, priority 2018, published 2021).
Entries after “also recorded” stand apart in the source; their conditions may differ.

Key:
hair follicles = conditions: mice treated with 32 mM
Source text: (§1) Mouse dorsal skin was shaved before being collected for histological and molecular analyses. Full-thickness skin tissue was then fixed in 10% formalin solution (Sigma, HT501128) overnight and dehydrated for embedding in paraffin. […] Images were captured by Leica Aperio ScanScope AT brightfield system at ×20 magnification.

mouse skin = conditions: visual inspection, confirmed by IL-6 and F4/80 staining
Source text: as §1

LC3 = assay: Western blot of treated mouse skin: LC3; format: in vivo; conditions: 24 hours and 5 days post-treatment
Description: (§2) Male mice were shaved and treated every other day starting on Postnatal Day 43. After 5 days, telogen skin samples were harvested and stage confirmed. […] Tissue and cell debris were removed by centrifugation and the lysate was boiled for 5 min in 1×SDS loading buffer containing 5% β-mercaptoethanol.

p62/SQSTM1 = assay: Western blot of treated mouse skin: p62; format: in vivo; conditions: treated mouse telogen skin
Description: as §2

[1] = test system: Beclin 1 S14 phosphorylation; assay: Western blot of treated mouse skin: phosphorylated Beclin 1 S14; format: in vivo; conditions: Day 5 post-treatment
Description: as §2

[2] = test system: Beclin 1 S91 phosphorylation; assay: Western blot of treated mouse skin: phosphorylated Beclin 1 S91; format: in vivo
Description: (§3) Male mice were shaved and treated every other day starting on Postnatal Day 43. After 5 days, telogen skin samples were harvested and stage confirmed. Mouse skin tissue lysate was prepared by homogenization in T-PER Tissue Protein Extraction Buffer (Thermo Scientific, 78510) with protease inhibitors (Roche, 11836153001) and phosphatase inhibitors (Sigma, P5726) by FastPrep-24 (MP Biomedicals). Tissue and cell debris were removed by centrifugation and the lysate was boiled for 5 min in 1×SDS loading buffer containing 5% β-mercaptoethanol. Samples were then subjected to SDS-PAGE on NuPAGE Novex 12% Bis-Tris gels (Invitrogen, NP0343BOX), and western blotting was carried out with antibodies against LC3 (Novus, NB100-2220), p62 (Sigma, P0068), Phospho-Beclin-1 (Ser15) (corresponding to Ser14 in mouse) (Cell Signaling, 84966), Phospho-Beclin-1 (Ser93) (corresponding to Ser91 in mouse) (Cell Signaling, 14717), Beclin-1 (Abcam, ab207612), or GAPDH (Ambion, AM4300).

[3] = test system: autophagy related markers; assay: Western blot analysis of autophagy related markers in telogen skin; format: in vivo, mouse; conditions: telogen skin of mice treated for 6 hours, 24 hours, and 5 days
Description: as §3

p62 transcript = assay: Quantitative RT-PCR of p62 transcript in treated skin; format: in vivo, mouse; conditions: 24 hours post-treatment, B2m internal control
Description: At 24 hours post-treatment, telogen skin samples were harvested and total RNA was isolated using TRIzol reagent (Invitrogen) from whole thickness mouse skin tissue. cDNA was synthesized using iScript Reverse Transcription Supermix (Bio-Rad). iTaq Universal SYBR Green Supermix (Bio-Rad) and a Bio-Rad CFX Connect instrument were used for quantitative RT-PCR. The primer sequences used for RT-qPCR are as follows: […]

[4] = test system: C57BL/6J mouse dorsal skin; assay: Assay for hair regeneration in mice (topical treatment of shaved telogen dorsal skin)
[5] = male mice shaved Postnatal Day 57 (8-week old), topical 32 mM every other day

Compound: O=C(O)CCC(=O)C(=O)O [α-KG, α-ketoglutarate]
- H&E stained skin tissue sections (hair follicles): new hair follicles and enlarged bulbs, elongated hair shafts, and thickened dermal layers
- Skin irritation or inflammation (mouse skin): no evidence of skin irritation or inflammation
- Autophagy induction by Western blot analysis of LC3 (LC3): Increased autophagy induction
- p62 expression (Western blot) (p62/SQSTM1): increased
- Beclin 1 S14 phosphorylation (mTOR-dependent) [1]: increased
- Beclin 1 S91 phosphorylation (AMPK-dependent) [2]: increased
- Autophagy associated markers, including LC3, p62, and phosphorylated Beclin 1 [3]: Induction
- p62 transcript levels (quantitative RT-PCR) (p62 transcript): increased
- Rapid anagen entry on whole dorsal telogen skin ([4]; among treated mice): observed from time to time
- Hair regeneration in female mice ([4]; female mice shaved Postnatal Day 58, topical 16 mM every other day, Day 26 post-treatment): stimulate hair regeneration
- Time until hair growth from the pigmented skin areas was visible ([4]; male mice shaved Postnatal Day 44, topical 32 mM every other day): 5 to 7 days
- Hair regeneration ([4]; male mice shaved Postnatal Day 44, topical 32 mM every other day, Day 39 post-treatment): induces hair regeneration; also recorded: exhibited overall hair growth; also recorded: drastically enhances hair regeneration; also recorded: exhibited robust hair growth
- Day by which full dorsal hair coverage was observed [4, 5]: ≤ 20 days
- Day on which pigmentation became visible [4, 5]: 7 days
- Hair regeneration in 8-week old animals ([4]; male mice shaved Postnatal Day 57, topical 32 mM every other day, Day 20 post-treatment, compared to 6.5-week old mice): induces faster hair regeneration; also recorded: even more dramatic
- Day post-treatment on which new anagen waves were initiated ([4]; telogen skin): 7 days
